Key:
in vivo [1] = conditions: CD-1, mouse, liver, ip, 50 mg/kg
in vivo [2] = conditions: CD-1, mouse, plasma, ip, 50 mg/kg
in vivo [3] = conditions: CD-1, mouse, fat tissue, ip, 50 mg/kg

Measured: half-life

Cc1cc(Nc2ccc(NC(=O)Cc3cc(Br)cs3)cc2)nc(N2CCCC2)n1
8 h: all assays above

From ChEMBL document CHEMBL5046283, “Design, Synthesis, and Biological Evaluation of the First Inhibitors of Oncogenic CHD1L” (J Med Chem, 2022)
